Data taken from article PMC7703681 (Journal of medicinal chemistry, 2020).

Test system: ventral prostate (VP) and seminal vesicle (SV) weights
Details: rat, in vivo, po, 20 mg/kg

Question: For `C[C@](O)(Cn1cc(F)cn1)C(=O)Nc1cnc(C#N)c(C(F)(F)F)c1` [21a, (S)-N-(6-Cyano-5-(trifluoromethyl)pyridin-3-yl)-3-(4-fluoro-1H-pyrazol-1-yl)-2-hydroxy-2-methylpropanamide], which “reduction of SV weight” value is on record?
Answer: The value was 45–50%.

Question: What about the “reduction of VP weight” value of the same compound?
Answer: The value was “approximately 35%”.
